Measured values taken from article PMC7893793 (ACS Omega, 2021).

Test: Pharmacokinetic study in rats after oral administration of PbR extract
Assay type: in vivo, rat
Conditions: after oral administration of PbR at a dose of 0.5 g/100 g

echinacoside
detection in rat plasma: neither of these were detected
